Assay results: US20240239813A1, “KRAS INHIBITORS AND PHARMACEUTICAL USES THEREOF” (RISEN (SUZHOU) PHARMA TECH CO., LTD., priority 2022, published 2024)

The chains behind the UniProt entries cited, without tags or fusion partners. Residues count along the entry.
UniProt P01116, 1-188 isoform 2 G12D limits assumed: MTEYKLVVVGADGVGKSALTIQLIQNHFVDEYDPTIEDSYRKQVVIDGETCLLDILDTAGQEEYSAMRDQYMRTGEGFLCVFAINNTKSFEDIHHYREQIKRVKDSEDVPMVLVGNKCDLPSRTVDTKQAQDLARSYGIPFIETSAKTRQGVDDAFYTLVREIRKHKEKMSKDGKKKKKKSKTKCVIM

Target: His-tagged Human KRAS^G12D (Homo sapiens (Human), UniProt P01116, G12D)
Test: HTRF KRAS G12D GTP binding assay
Details: read-out: IC50 for binding to KRAS^G12D, displacement of GTP-Red tracer

Structure (SMILES): C#Cc1c(F)ccc2cc(O)cc(-c3ncc4c(N5CCC=CCC5)nc(OCC5(CN(C)C)CC5)nc4c3F)c12
- IC50: > 1000 nM

Structure (SMILES): CN(C)CC1(COc2nc(N3CCC[C@@](C)(O)C3)c3cnc(-c4cc(N)cc(Cl)c4C(F)(F)F)c(F)c3n2)CC1
- IC50: 385 nM
